Experimental data from the Kinase Knowledgebase extract (Sharma et al. 2016).

The chains behind the UniProt entries cited, without tags or fusion partners. Where a name states a change or a piece, a line headed by the entry shows the natural chain unless it says otherwise.
UniProt P42338: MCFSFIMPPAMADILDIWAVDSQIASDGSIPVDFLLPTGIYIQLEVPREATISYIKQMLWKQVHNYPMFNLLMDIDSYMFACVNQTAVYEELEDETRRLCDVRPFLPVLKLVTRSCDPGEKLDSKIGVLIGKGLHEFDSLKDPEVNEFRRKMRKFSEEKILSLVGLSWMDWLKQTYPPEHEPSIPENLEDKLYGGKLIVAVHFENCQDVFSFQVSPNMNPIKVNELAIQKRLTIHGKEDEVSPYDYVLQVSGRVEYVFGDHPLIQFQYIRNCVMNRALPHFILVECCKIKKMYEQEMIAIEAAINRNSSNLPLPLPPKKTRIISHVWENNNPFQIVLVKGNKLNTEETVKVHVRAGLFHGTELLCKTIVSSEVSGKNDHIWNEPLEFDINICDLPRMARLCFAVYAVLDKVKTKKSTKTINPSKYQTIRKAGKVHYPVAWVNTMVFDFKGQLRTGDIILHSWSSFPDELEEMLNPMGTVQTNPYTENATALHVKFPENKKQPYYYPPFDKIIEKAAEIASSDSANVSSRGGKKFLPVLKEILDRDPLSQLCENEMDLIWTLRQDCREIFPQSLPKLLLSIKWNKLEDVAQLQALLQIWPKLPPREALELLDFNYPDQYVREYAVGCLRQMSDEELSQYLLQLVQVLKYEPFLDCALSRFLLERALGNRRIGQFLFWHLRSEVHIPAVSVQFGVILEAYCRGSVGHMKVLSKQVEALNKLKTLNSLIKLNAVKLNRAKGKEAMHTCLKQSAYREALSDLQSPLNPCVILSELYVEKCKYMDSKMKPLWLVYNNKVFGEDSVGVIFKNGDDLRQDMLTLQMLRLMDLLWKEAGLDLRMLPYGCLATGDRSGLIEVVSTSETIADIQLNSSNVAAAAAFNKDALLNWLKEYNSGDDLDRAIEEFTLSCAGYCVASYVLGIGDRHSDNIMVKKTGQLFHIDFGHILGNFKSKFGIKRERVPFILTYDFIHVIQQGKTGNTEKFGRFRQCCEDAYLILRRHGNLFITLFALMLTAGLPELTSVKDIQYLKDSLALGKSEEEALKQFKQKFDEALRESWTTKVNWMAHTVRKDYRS
UniProt P48736: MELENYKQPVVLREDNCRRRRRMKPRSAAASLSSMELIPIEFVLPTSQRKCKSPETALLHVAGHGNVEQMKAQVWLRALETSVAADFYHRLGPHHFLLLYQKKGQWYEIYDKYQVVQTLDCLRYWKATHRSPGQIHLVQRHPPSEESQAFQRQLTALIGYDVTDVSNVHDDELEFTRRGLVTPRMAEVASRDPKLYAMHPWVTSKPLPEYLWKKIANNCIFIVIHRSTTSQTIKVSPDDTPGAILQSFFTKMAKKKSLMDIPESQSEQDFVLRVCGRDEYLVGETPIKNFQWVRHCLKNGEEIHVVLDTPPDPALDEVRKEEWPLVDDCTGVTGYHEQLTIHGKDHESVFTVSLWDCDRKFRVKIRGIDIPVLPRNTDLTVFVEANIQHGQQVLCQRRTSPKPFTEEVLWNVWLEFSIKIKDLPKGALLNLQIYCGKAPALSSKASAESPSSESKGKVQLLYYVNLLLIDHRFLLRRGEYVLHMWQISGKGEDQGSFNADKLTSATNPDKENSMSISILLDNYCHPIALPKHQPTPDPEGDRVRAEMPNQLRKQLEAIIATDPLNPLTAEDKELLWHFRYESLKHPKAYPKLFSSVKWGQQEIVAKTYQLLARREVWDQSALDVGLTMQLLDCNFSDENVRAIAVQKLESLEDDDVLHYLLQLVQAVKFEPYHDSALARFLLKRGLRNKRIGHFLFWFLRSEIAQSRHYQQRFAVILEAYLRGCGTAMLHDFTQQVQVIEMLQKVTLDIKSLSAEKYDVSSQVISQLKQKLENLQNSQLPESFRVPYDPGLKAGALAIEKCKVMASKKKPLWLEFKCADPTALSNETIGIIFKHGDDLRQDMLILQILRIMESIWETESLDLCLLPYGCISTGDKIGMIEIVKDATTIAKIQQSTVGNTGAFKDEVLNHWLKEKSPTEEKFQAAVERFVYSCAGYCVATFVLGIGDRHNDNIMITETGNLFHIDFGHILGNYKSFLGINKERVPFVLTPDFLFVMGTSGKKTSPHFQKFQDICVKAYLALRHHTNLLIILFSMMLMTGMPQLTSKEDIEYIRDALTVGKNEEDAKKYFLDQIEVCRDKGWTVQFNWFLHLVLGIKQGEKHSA

Experiments:
PIK3CB (Human) = PIK3CB (Human) (UniProt P42338); experiment: Inhibition of PIK3CB Kinase Activity
PIK3CG (human) = PIK3CG (human) (UniProt P48736); experiment: Enzyme Assay

| Structure (SMILES) | IC50 (PIK3CB (Human)) [nM] | IC50 (PIK3CG (human)) [nM] |
| --- | --- | --- |
| CNC(=O)Nc1nc2ccc(-c3nn(C(C)C)c4ncnc(N)c34)cc2s1 | 100 to 500 | – |
| Nc1ncnc2c1c(-c1cc3cc(O)ccc3[nH]1)nn2C1CCCC1 | – | 100 to 500 |
